Source: article PMC12102759 (Protein Science : A Publication of the Protein Society, 2025)

Protein sequences, listed by entry. Tags and fused reporters are not part of them. Residues count along the entry.
UniProt Q9Y490, 309-401: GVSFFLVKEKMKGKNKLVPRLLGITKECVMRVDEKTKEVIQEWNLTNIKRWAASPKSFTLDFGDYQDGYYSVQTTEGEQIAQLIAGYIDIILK

The substances below were run against TLN1 PTB (Homo sapiens, UniProt Q9Y490).
Assay type: binding

Compared with “TDERSWVYSPLHYS(averaged) R4T (TDETSWVYSPLHYS)”, “TDERSWVYSPLHYS(averaged) R4V (TDEVSWVYSPLHYS)” is higher in “DMS-derived PSSM value, averaged over the two overlapping peptides” value: 0.01714 for the first, 0.07212 for the second.

Compared with “TDERSWVYSPLHYS(averaged) R4W (TDEWSWVYSPLHYS)”, “TDERSWVYSPLHYS(averaged) R4Y (TDEYSWVYSPLHYS)” is higher in “DMS-derived PSSM value, averaged over the two overlapping peptides” value: 0.01711 for the first, 0.03628 for the second.

Going from “TDERSWVYSPLHYS(averaged) S5A (TDERAWVYSPLHYS)” to “TDERSWVYSPLHYS(averaged) S5D (TDERDWVYSPLHYS)”, the “DMS-derived PSSM value, averaged over the two overlapping peptides” value rises from 0.03937 to 0.07346.

Going from “TDERSWVYSPLHYS(averaged) S5E (TDEREWVYSPLHYS)” to “TDERSWVYSPLHYS(averaged) S5F (TDERFWVYSPLHYS)”, the “DMS-derived PSSM value, averaged over the two overlapping peptides” value falls from 0.04656 to 0.00272.

Compared with “TDERSWVYSPLHYS(averaged) S5G (TDERGWVYSPLHYS)”, “TDERSWVYSPLHYS(averaged) S5H (TDERHWVYSPLHYS)” is higher in “DMS-derived PSSM value, averaged over the two overlapping peptides” value: 0.00973 for the first, 0.03365 for the second.

Compared with “TDERSWVYSPLHYS(averaged) S5I (TDERIWVYSPLHYS)”, “TDERSWVYSPLHYS(averaged) S5K (TDERKWVYSPLHYS)” is lower in “DMS-derived PSSM value, averaged over the two overlapping peptides” value: 0.2382 for the first, 0.03356 for the second.

Compared with “TDERSWVYSPLHYS(averaged) S5L (TDERLWVYSPLHYS)”, “TDERSWVYSPLHYS(averaged) S5M (TDERMWVYSPLHYS)” is higher in “DMS-derived PSSM value, averaged over the two overlapping peptides” value: 0.06237 for the first, 0.1082 for the second.

Compared with “TDERSWVYSPLHYS(averaged) S5N (TDERNWVYSPLHYS)”, “TDERSWVYSPLHYS(averaged) S5P (TDERPWVYSPLHYS)” is higher in “DMS-derived PSSM value, averaged over the two overlapping peptides” value: 0.006865 for the first, 0.02875 for the second.

Compared with “TDERSWVYSPLHYS(averaged) S5Q (TDERQWVYSPLHYS)”, “TDERSWVYSPLHYS(averaged) S5R (TDERRWVYSPLHYS)” is higher in “DMS-derived PSSM value, averaged over the two overlapping peptides” value: 0.007151 for the first, 0.06127 for the second.

Compared with TDERSWVYSPLHYS(averaged) S5S, “TDERSWVYSPLHYS(averaged) S5T (TDERTWVYSPLHYS)” is higher in “DMS-derived PSSM value, averaged over the two overlapping peptides” value: 0.06997 for the first, 0.1201 for the second.

Compared with “TDERSWVYSPLHYS(averaged) S5V (TDERVWVYSPLHYS)”, “TDERSWVYSPLHYS(averaged) S5W (TDERWWVYSPLHYS)” is higher in “DMS-derived PSSM value, averaged over the two overlapping peptides” value: 0.01272 for the first, 0.02341 for the second.

Compared with “TDERSWVYSPLHYS(averaged) S5Y (TDERYWVYSPLHYS)”, “TDERSWVYSPLHYS(averaged) S9A (TDERSWVYAPLHYS)” is higher in “DMS-derived PSSM value, averaged over the two overlapping peptides” value: 0.02194 for the first, 0.1265 for the second.

Going from “TDERSWVYSPLHYS(averaged) S9D (TDERSWVYDPLHYS)” to “TDERSWVYSPLHYS(averaged) S9E (TDERSWVYEPLHYS)”, the “DMS-derived PSSM value, averaged over the two overlapping peptides” value falls from 0.003142 to 0.002898.

Going from “TDERSWVYSPLHYS(averaged) S9F (TDERSWVYFPLHYS)” to “TDERSWVYSPLHYS(averaged) S9G (TDERSWVYGPLHYS)”, the “DMS-derived PSSM value, averaged over the two overlapping peptides” value falls from 0.001144 to 0.0002972.

Compared with “TDERSWVYSPLHYS(averaged) S9H (TDERSWVYHPLHYS)”, “TDERSWVYSPLHYS(averaged) S9I (TDERSWVYIPLHYS)” is lower in “DMS-derived PSSM value, averaged over the two overlapping peptides” value: 0.006259 for the first, 0.0005722 for the second.

“TDERSWVYSPLHYS(averaged) S9K (TDERSWVYKPLHYS)” and “TDERSWVYSPLHYS(averaged) S9L (TDERSWVYLPLHYS)” are the same in “DMS-derived PSSM value, averaged over the two overlapping peptides” value: 0 for the first, 0 for the second.

First: TDERSWVYSPLHYS(averaged) S9M (TDERSWVYMPLHYS)
Second: TDERSWVYSPLHYS(averaged) S9N (TDERSWVYNPLHYS)
The “DMS-derived PSSM value, averaged over the two overlapping peptides” value of the first is lower: 0.05805 for the first, 0.1108 for the second.

Going from “TDERSWVYSPLHYS(averaged) S9P (TDERSWVYPPLHYS)” to “TDERSWVYSPLHYS(averaged) S9Q (TDERSWVYQPLHYS)”, the “DMS-derived PSSM value, averaged over the two overlapping peptides” value falls from 0.1107 to 0.00205.

Going from “TDERSWVYSPLHYS(averaged) S9R (TDERSWVYRPLHYS)” to TDERSWVYSPLHYS(averaged) S9S, the “DMS-derived PSSM value, averaged over the two overlapping peptides” value rises from 0.0004416 to 0.4884.

First: TDERSWVYSPLHYS(averaged) S9T (TDERSWVYTPLHYS)
Second: TDERSWVYSPLHYS(averaged) S9V (TDERSWVYVPLHYS)
The “DMS-derived PSSM value, averaged over the two overlapping peptides” value of the first is higher: 0.03764 for the first, 0.02505 for the second.

Compared with “TDERSWVYSPLHYS(averaged) S9W (TDERSWVYWPLHYS)”, “TDERSWVYSPLHYS(averaged) S9Y (TDERSWVYYPLHYS)” is lower in “DMS-derived PSSM value, averaged over the two overlapping peptides” value: 0.0141 for the first, 0.01193 for the second.

Going from “TDERSWVYSPLHYS(averaged) S14A (TDERSWVYSPLHYA)” to “TDERSWVYSPLHYS(averaged) S14D (TDERSWVYSPLHYD)”, the “DMS-derived PSSM value, averaged over the two overlapping peptides” value falls from 0.07928 to 0.05615.

Compared with “TDERSWVYSPLHYS(averaged) S14E (TDERSWVYSPLHYE)”, “TDERSWVYSPLHYS(averaged) S14F (TDERSWVYSPLHYF)” is higher in “DMS-derived PSSM value, averaged over the two overlapping peptides” value: 0.02604 for the first, 0.02637 for the second.

Compared with “TDERSWVYSPLHYS(averaged) S14G (TDERSWVYSPLHYG)”, “TDERSWVYSPLHYS(averaged) S14H (TDERSWVYSPLHYH)” is lower in “DMS-derived PSSM value, averaged over the two overlapping peptides” value: 0.08 for the first, 0.05333 for the second.

Going from “TDERSWVYSPLHYS(averaged) S14I (TDERSWVYSPLHYI)” to “TDERSWVYSPLHYS(averaged) S14K (TDERSWVYSPLHYK)”, the “DMS-derived PSSM value, averaged over the two overlapping peptides” value falls from 0.0932 to 0.005913.

First: TDERSWVYSPLHYS(averaged) S14L (TDERSWVYSPLHYL)
Second: TDERSWVYSPLHYS(averaged) S14M (TDERSWVYSPLHYM)
The “DMS-derived PSSM value, averaged over the two overlapping peptides” value of the first is lower: 0.01979 for the first, 0.04111 for the second.

Compared with “TDERSWVYSPLHYS(averaged) S14N (TDERSWVYSPLHYN)”, “TDERSWVYSPLHYS(averaged) S14P (TDERSWVYSPLHYP)” is lower in “DMS-derived PSSM value, averaged over the two overlapping peptides” value: 0.02528 for the first, 0.0181 for the second.

First: TDERSWVYSPLHYS(averaged) S14Q (TDERSWVYSPLHYQ)
Second: TDERSWVYSPLHYS(averaged) S14R (TDERSWVYSPLHYR)
The “DMS-derived PSSM value, averaged over the two overlapping peptides” value of the first is higher: 0.01267 for the first, 0.01172 for the second.

First: TDERSWVYSPLHYS(averaged) S14S
Second: TDERSWVYSPLHYS(averaged) S14T (TDERSWVYSPLHYT)
The “DMS-derived PSSM value, averaged over the two overlapping peptides” value of the first is lower: 0.06152 for the first, 0.1228 for the second.

First: TDERSWVYSPLHYS(averaged) S14V (TDERSWVYSPLHYV)
Second: TDERSWVYSPLHYS(averaged) S14W (TDERSWVYSPLHYW)
The “DMS-derived PSSM value, averaged over the two overlapping peptides” value of the first is higher: 0.1749 for the first, 0.06383 for the second.
